scFv variants of Ab-14 (light chain) against a SARS-CoV-2 spike peptide

The measurements come from Li et al. 2023 (doi:10.1038/s41467-023-39022-2) through the FLAb antibody collection.

All variants were tested on one target, the spike HR2 peptide PDVDLGDISGINAS (SARS-CoV-2).

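The variants were designed computationally from a first round of random CDR variants and then made and measured. Several design methods are mixed in this list. Affinity was read by AlphaSeq, a pooled yeast mating assay with surface-displayed partners. Mating (16 h, 30 °C) was followed by selection of diploids and sequencing of their barcodes. Scores were corrected for input abundance and mapped to Kd with protein pairs of known affinity run in the same pool. The assay was run in six technical replicates.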

Ab-14 is the parent antibody, in scFv form: VH, then a (GGGGS)3 linker, then VL. The heavy chain is unchanged in all variants.
VH: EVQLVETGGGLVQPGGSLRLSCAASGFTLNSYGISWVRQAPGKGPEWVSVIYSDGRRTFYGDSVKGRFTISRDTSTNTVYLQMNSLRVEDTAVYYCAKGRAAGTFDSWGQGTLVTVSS
VL: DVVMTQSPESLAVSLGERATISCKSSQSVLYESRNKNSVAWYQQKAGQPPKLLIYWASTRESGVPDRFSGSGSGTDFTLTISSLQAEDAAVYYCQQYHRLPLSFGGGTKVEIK

Each variant is given by its three light chain CDRs, as the data file delimits them; those of the parent are KSSQSVLYESRNKNSVA, WASTRES, QQYHRLPLS. Variants here have more than six changes. The Kd shown is the geometric mean over detected replicates; a lower Kd is a better binder. "nd" means that the variant was in the library but no mating with the target was seen in any replicate; the authors take this as a sign of poor binding, and no number exists. The list is sorted by this average, lowest first, undetected variants last. The range of this assay differs from that of the first round, and the authors advise against merging the two. The authors averaged sequences with at least three values out of six and counted those with two or fewer as poor binders. Nonspecific signal, from three strains lacking the peptide, appeared in 4% of pairings of all light chain designs, centred on 430 nM (5% of these signals below 38 nM); values are not corrected for it.

- MISDLTGYGSRNKNSVA, DLSTRGS, QQYNRLPLS -> 400 pM (6 of 6 replicates)
- KLSMMVDYGDRNKNSVA, SASTRES, QQYHRLPLS -> 540 pM (6 of 6 replicates)
- KLYQSMGYLSHEKNSIA, DMSRREN, QQYHRLPLS -> 1.1 nM (6 of 6 replicates)
- KLSQVTEYEMHNKNNVA, DLTTRGS, QDYHRLPLS -> 1.1 nM (6 of 6 replicates)
- KLSQSHLYESRNWNAVA, EASQRPS, QQYHRLPLS -> 1.2 nM (6 of 6 replicates)
- KLEQLYDYGSRNKNSVA, QASLRES, QQYHRLPLS -> 1.3 nM (6 of 6 replicates)
- TVSQVHGMLSHNKNSVA, DMNTRGE, QQYDRLPLS -> 1.4 nM (6 of 6 replicates)
- KCSQNVLIMGRNKNNVA, EMTTREE, QQYDHLPLS -> 1.6 nM (6 of 6 replicates)
- NLVEDEGTNQAKMGNIA, SVDQRMD, QQYQRLPLI -> 2.3 nM (6 of 6 replicates)
- HMKDEPGLGPQTYSSVA, HASILEP, QQYYRLPLM -> 3.1 nM (6 of 6 replicates)
- KLQQSFLYEERNPNSVA, NASLREL, QQYHRLPLS -> 3.1 nM (6 of 6 replicates)
- KLSQSVEVLDRNKNSVA, NASTREM, QQYHRLPLS -> 3.2 nM (6 of 6 replicates)
- KMSQSVLGLDRNWNSVA, YASTREM, QQYHRLPLS -> 3.4 nM (6 of 6 replicates)
- NLPMKELQMSWNVNNVA, DSEQRMK, QQYSRLPLM -> 4.0 nM (6 of 6 replicates)
- KLSMSMLMESKHKNSVA, ENSTREE, QHYHRLPLS -> 4.6 nM (6 of 6 replicates)
- MISQISNMGQFAINSVA, QASIRNS, QQYDRLPLM -> 4.6 nM (6 of 6 replicates)
- KLENSNRWNYRDTNAVA, QASNRAA, QQYQRLPFL -> 5.3 nM (6 of 6 replicates)
- IISEVDAYLSRNTNSIA, DQSTRGS, QQYDRLPLS -> 6.1 nM (6 of 6 replicates)
- RFDLHVKEIETIESAVA, NTSVRAD, QSYDRLPLS -> 6.2 nM (1 of 6 replicates)
- HFAYPLQSLYVSKQNVA, NASTVMT, QHYNRLPLS -> 6.4 nM (6 of 6 replicates)
- MLTWGDDHTTGHQNAIA, HAHERNT, QQYALLPLS -> 6.6 nM (6 of 6 replicates)
- KLYAMTMLESHDKNSIA, DLSTRGN, QQYHRLPLS -> 7.0 nM (6 of 6 replicates)
- KVSEFMRGLMMRQDSIA, DNQTRNN, QQYDRLPLS -> 8.1 nM (6 of 6 replicates)
- KVSQSVMMLSRNKNSVA, DNSTSGS, QQYHRLPLS -> 9.7 nM (6 of 6 replicates)
- MLTMFNNENQGWSNNIA, DTNNLNE, QQYSRLPFM -> 11 nM (6 of 6 replicates)
- TISQSTYWESRNKNSVA, QTSTRME, QDYDRLPLS -> 12 nM (6 of 6 replicates)
- MVTQMAMTGMMSKRSVA, NAETREH, QQYHHLPLI -> 12 nM (6 of 6 replicates)
- NLMGQGDHSIKHANSIA, NVDIVDM, QQYAHLPLS -> 14 nM (6 of 6 replicates)
- TISQITSLFTQNIANVA, EVSTREN, QQYDRLPLS -> 17 nM (2 of 6 replicates)
- LISGVWDIGSRNYNSVA, QTSTRES, QQYDRLPLS -> 22 nM (6 of 6 replicates)
- MIEEDNAGEQKNSSNIA, SQDQKED, QQYQRLPLM -> 28 nM (6 of 6 replicates)
- KISALYNYESTNKNSIA, EMTTRES, QHYHRLPLS -> 30 nM (6 of 6 replicates)
- QIQGKLQEHGNQGANVA, QGVESKN, QQYFRLPLT -> 32 nM (6 of 6 replicates)
- KIQHKTYFENIGEYSVA, DANTSVD, QYYFRLPLS -> 33 nM (6 of 6 replicates)
- KLRHHNLDFYEVENNIA, GESMRAA, QQYYRLPLN -> 36 nM (6 of 6 replicates)
- TLHANIEYGGGMWSSIA, DNVQRAD, QYYQRLPLG -> 39 nM (6 of 6 replicates)
- RIQEQYQWPQNAGQNVA, EIQTAID, QQYAHLPLS -> 42 nM (6 of 6 replicates)
- KLSGLMQSSKFAKNNVA, ENNTREA, QQYDRLPLS -> 61 nM (6 of 6 replicates)
- TIGQVMNYESRNKNSVA, QTSTREE, QDYDRLPLS -> 75 nM (6 of 6 replicates)
- IVSQLMLWGWSAKNSIA, EAVTRLN, QQYDRLPLI -> 90 nM (3 of 6 replicates)
- MISDMGLHDSRLQDSVA, NNSTREA, QQYDRLPLS -> 93 nM (2 of 6 replicates)
- KVDDSMVEWDANQSQVA, DHAEAQH, QQYDRLPLS -> 100 nM (6 of 6 replicates)
- TISQMTSWMSNVKNNVA, EVSTREN, QQYDRLPLS -> 120 nM (6 of 6 replicates)
- MVTQLMLWGWHAKNSIA, EAQTRIN, QQYDRLPLF -> 140 nM (2 of 6 replicates)
- MVSQLMLWGLHAKNSIA, EAVMRLN, QQYDRLPLM -> 220 nM (1 of 6 replicates)
- MISQLMNMGYFAINSVA, QASERSN, QQYDRLPLM -> 300 nM (1 of 6 replicates)
- MLSDVTNGMARKHYSVA, DNSTREK, QQYDRLPLS -> 510 nM (1 of 6 replicates)
- MISNVMNTLTREGNNVA, DLAEREN, QQYFRLPLS -> 520 nM (6 of 6 replicates)
- KISQMYRYEQQNHSSIA, EANTREQ, QSYYRLPLS -> 640 nM (2 of 6 replicates)
- KLYQNVGTMSHNKASIA, DMERRED, QQYHRLPLS -> nd (0 of 6 replicates)
- YLVQAADYYDSNYNNIA, NGRLRNE, QQYFHLPLT -> nd (0 of 6 replicates)

The last 9 entries again:

- TISQMTSWMSNVKNNVA, EVSTREN, QQYDRLPLS = 120 nM (6 of 6 replicates)
- MVTQLMLWGWHAKNSIA, EAQTRIN, QQYDRLPLF = 140 nM (2 of 6 replicates)
- MVSQLMLWGLHAKNSIA, EAVMRLN, QQYDRLPLM = 220 nM (1 of 6 replicates)
- MISQLMNMGYFAINSVA, QASERSN, QQYDRLPLM = 300 nM (1 of 6 replicates)
- MLSDVTNGMARKHYSVA, DNSTREK, QQYDRLPLS = 510 nM (1 of 6 replicates)
- MISNVMNTLTREGNNVA, DLAEREN, QQYFRLPLS = 520 nM (6 of 6 replicates)
- KISQMYRYEQQNHSSIA, EANTREQ, QSYYRLPLS = 640 nM (2 of 6 replicates)
- KLYQNVGTMSHNKASIA, DMERRED, QQYHRLPLS = nd (0 of 6 replicates)
- YLVQAADYYDSNYNNIA, NGRLRNE, QQYFHLPLT = nd (0 of 6 replicates)